Legend:
[1] = target: T1, CLDN18.2 His (human, UniProt P56856-2 1-261, limits assumed); test: BLI (Fortebio Octet), antibody on AHC sensor, CLDN18.2 His 6.25-100 nM, 1:1 fit
T1 construct: also called antigen CLDN18.2 His; human CLDN18.2; not shown: His tag
Description: The affinity constant of the antibody for human CLDN18.2 and CD47 ECD-His was determined using a Fortebio Octer molecular interaction instrument. The sample dilution buffer was PBS (0.02% Tween-20, 0.1% BSA, pH 7.4). The method for detecting the affinity of the antibody for human CLDN18.2 is as follows. The antibody at 20 nM was immobilized on an AHC sensor for 60 s. The sensor was equilibrated in a buffer for 60 s, and the binding of the immobilized antibody on the sensor to CLDN18.2 His at concentrations of 6.25-100 nM (two-fold dilution) was determined for 180 s. The protein was dissociated in the buffer for 360 s. The method for detecting the affinity of the antibody to human CD47 ECD-His is as follows. The antibody at 30 nM was immobilized on an AHC sensor for 120 s. The sensor was equilibrated in a buffer for 60 s, and the binding of the immobilized antibody on the sensor to the protein CD47 ECD-His at concentrations of 4.94-400 nM (three-fold dilution) was determined for 50 s. The protein was dissociated in the buffer for 120 s. The shaking speed of the sample plate was 1000 rpm, the temperature was 30° C., and the frequency was 5.0 Hz. The data were analyzed by 1:1 model fitting to obtain affinity constants. The data acquisition software was Fortebio Data Acquisition 12.0, and the data analysis software was Fortebio Data Analysis HT 12.0.

[2] = target: T2, human CLDN18.2 (ELISA coating antigen) (human, UniProt P56856-2 1-261, limits assumed); test: indirect ELISA, coated human CLDN18.2 2 µg/mL
T2 construct: also called antigen human CLDN18.2
Description: After blocking, the ELISA plate was washed 3 times with PBST. The ELISA plate containing the test antibodies was incubated at 37° C. for 30 min and then washed 3 times with PBST. […] The ELISA plate was put into a microplate reader immediately, and the OD value of each well in the ELISA plate was read at 450 nm. The data were analyzed and processed by SoftMax Pro 6.2.1.

[3] = target: T3, CLDN18.2 on the cell membrane surface (CHO-K1-CLDN18.2 cells, CHO-K1-CLDN18.2-CD47 cells, CHO-K1-hClaudin18.2 … (human, UniProt P56856-2 1-261)); test: flow cytometry (FACS) on CHO-K1-CLDN18.2 cells, PE anti-human IgG Fc
T3 construct: whole, on cells; also called human Claudin18.2

[4] = target: T3, CLDN18.2 on the cell membrane surface …; test: flow cytometry (FACS) on CHO-K1-CLDN18.2-CD47 cells, PE anti-human IgG Fc

- Kd [1]: 1.06 nM
- koff [1]: 5.27e-05 s⁻¹
- kon [1]: 49800 M⁻¹ s⁻¹
- EC50 [2]: 0.011 nM
- EC50 [3]: 4.44 nM
- EC50 [4]: 1.22 nM
B1: 8C5.1H3L3 (antibody, IgG1, V domains shown)
VH: EVQLVESGGGLVKPGGSLRLSCAASGFTFSNSAVSWVRQAPGKGLEWVSSITSGVSYTYYADSVKGRFTISRDNAKNSLYLQMNSLRAEDTAVYYCTRQFKGNALDYWGQGTSVTVSS
VL: DIVMTQSPSSLSVSPGERVTISCKSSQSLLNSGNQKNYLAWYQQKPGQPPKLLIYWASTRESGVPDRFSGSGSGTDFTLTISSLQAEDVAVYYCQNDYFYPLTFGAGTKLELKR

— US20250368735A1 (AKESO BIOPHARMA, published 2025)
